# Literature values in paper PMC11284792, “Backbone-Determined Antiarrhythmic Structure–Activity Relationships for a Mirror Image, Oligomeric Depsipeptide Natural Product” (Journal of Medicinal Chemistry, 2024).
# Settings: companion study; cited from earlier work
row,Substance,Passive permeability measured by PAMPA (in words)
1,"(3R,6S,9R,12S,15R,18S,21R,24S)-3,4,9,10,15,16,19,21,22-nonamethyl-6,12,18,24-tetrapentyl-1,7,13-trioxa-4,10,16,19,22-pentaazacyclotetracosan-2,5,8,11,14,17,20,23-octaone [3.1]",favorable passive permeability
2,"(3R,6S,9R,12S,15R,18S,21R,24S)-3,4,9,10,15,16,21,22-octamethyl-6,12,18,24-tetrapentyl-1,7,13-trioxa-4,10,16,19,22-pentaazacyclotetracosan-2,5,8,11,14,17,20,23-octaone [2.1]",favorable passive permeability
